Experimental data reported in patent US9790229B2, “Bruton's tyrosine kinase inhibitors” (priority 2009, dated 2017).

Amino acid sequences for entries named in this document (tags omitted). A change or cut given only in a name is not applied to a line headed by its entry.
UniProt Q06187: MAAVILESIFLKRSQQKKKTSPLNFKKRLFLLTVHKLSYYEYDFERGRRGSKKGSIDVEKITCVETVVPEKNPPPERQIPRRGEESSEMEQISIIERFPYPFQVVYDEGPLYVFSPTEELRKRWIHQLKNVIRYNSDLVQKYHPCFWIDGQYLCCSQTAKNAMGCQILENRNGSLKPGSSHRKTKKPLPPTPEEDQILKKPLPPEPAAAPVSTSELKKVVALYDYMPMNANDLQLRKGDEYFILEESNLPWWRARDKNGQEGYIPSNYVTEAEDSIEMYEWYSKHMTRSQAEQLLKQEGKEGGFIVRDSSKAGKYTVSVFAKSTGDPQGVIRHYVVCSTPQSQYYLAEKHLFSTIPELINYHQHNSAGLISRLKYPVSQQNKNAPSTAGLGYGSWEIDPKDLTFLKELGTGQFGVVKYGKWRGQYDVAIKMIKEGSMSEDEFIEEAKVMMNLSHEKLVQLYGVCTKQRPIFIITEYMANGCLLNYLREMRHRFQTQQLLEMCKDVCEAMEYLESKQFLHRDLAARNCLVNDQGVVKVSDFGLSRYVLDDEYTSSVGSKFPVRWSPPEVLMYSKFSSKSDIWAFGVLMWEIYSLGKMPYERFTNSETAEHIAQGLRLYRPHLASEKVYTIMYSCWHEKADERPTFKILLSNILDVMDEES

These molecules were tested against BTK (Homo sapiens (Human), UniProt Q06187) (assay: In vitro BTK kinase assay: BTK-POLYGAT-LS ASSAY). Settings: not given.

pIC50 | Structure (SMILES)
6.00 to 7.00 | O=C1[C@@H](Nc2cc(Cl)cc(Cl)c2)CCN1[C@@H]1CN(c2ncnc3[nH]ncc23)CC[C@H]1C(F)(F)F [compound 356]
5.00 to 6.00 | Nc1ncnc(N2CC[C@H](C(F)(F)F)[C@@H](N3CCC[C@H](Nc4cc(F)cc(Cl)c4)C3=O)C2)c1F [compound 333, trans (3S)-1′-(6-amino-5-fluoropyrimidin-4-yl)-3-(3-chloro-5-fluorophenylamino)-4′-(trifluoromethyl)-1,3′-bipiperidin-2-one]
5.00 to 6.00 | O=C(Nc1cccc([C@@H]2CCCN(c3ncnc4[nH]ccc34)C2)c1)Nc1c(Cl)cccc1Cl [compound 207]
6.00 to 7.00 | Nc1ncnc(N2CC[C@@H](C(F)(F)F)[C@H](N3CCC[C@@H](Nc4cc(F)cc(Cl)c4)C3=O)C2)c1F [compound 330, trans (3R)-1′-(6-Amino-5-fluoropyrimidin-4-yl)-3-(3-chloro-5-fluorophenylamino)-4′-(trifluoromethyl)-1,3′-bipiperidin-2-one]

More lines, now with the values behind:

Structure (SMILES) | pIC50
O=C(Nc1cccc(C2CCCN(c3ncnc4[nH]ccc34)C2)c1)Nc1c(Cl)cccc1Cl (stereo not shown) [Cmpd 59, 1-(3-(1-(7H-pyrrolo[2,3-d]pyrimidin-4-yl)piperidin-3-yl)phenyl)-3-(2,6-dichlorophenyl)urea] | 6.00 to 7.00
Nc1ncnc(N2CCCC(c3nc(NC(=O)Nc4ccccc4N4CCCC4)cs3)C2)c1Cl (stereo not shown) [compound 108, 1-(2-(1-(6-amino-5-chloropyrimidin-4-yl)piperidin-3-yl)thiazol-4-yl)-3-(2-(pyrrolidin-1-yl)phenyl)urea] | 6.00 to 7.00
COc1cccc(OC)c1NC(=O)Nc1cccc(C2CCCN(c3ncnc4[nH]ccc34)C2)c1 (stereo not shown) [Cmpd 61, 1-(3-(1-(7H-pyrrolo[2,3-d]pyrimidin-4-yl)piperidin-3-yl)phenyl)-3-(2,6-dimethoxyphenyl)urea] | 6.00 to 7.00
Cc1cccc(C)c1NC(=O)Nc1cccc(C2CCCN(c3ncnc4[nH]ccc34)C2)c1 (stereo not shown) [compound 177] | 6.00 to 7.00
O=C(Nc1cccc(C2CCCN(c3ncnc4[nH]ccc34)C2)c1)Nc1c(F)cccc1F (stereo not shown) [Cmpd 60, 1-(3-(1-(7H-pyrrolo[2,3-d]pyrimidin-4-yl)piperidin-3-yl)phenyl)-3-(2,6-difluorophenyl)urea] | 6.00 to 7.00
O=C(Nc1cccc(C2CCCN(c3ncnc4[nH]ccc34)C2)c1)N[C@H]1CCc2ccccc21 (stereo partly drawn) [Cmpd 41, 1-(3-(1-(7H-pyrrolo[2,3-d]pyrimidin-4-yl)piperidin-3-yl)phenyl)-3-((S)-2,3-dihydro-1H-inden-1-yl)urea] | 5.00 to 6.00
O=C(Nc1cccc(C2CCCN(c3ncnc4[nH]ccc34)C2)c1)N[C@@H]1CCCc2ccccc21 (stereo partly shown) [compound 208] | 5.00 to 6.00
O=C(Nc1cccc(C2CCCN(c3ncnc4[nH]ccc34)C2)c1)N[C@H]1CCCc2ccccc21 (stereo partly drawn) [Cmpd 42, 1-(3-(1-(7H-pyrrolo[2,3-d]pyrimidin-4-yl)piperidin-3-yl)phenyl)-3-((S)-1,2,3,4-tetrahydronaphthalen-1-yl)urea] | 5.00 to 6.00
O=C(Nc1cccc(C2CCCN(c3ncnc4[nH]ccc34)C2)c1)NC1CCCCC1 (stereo not shown) [Cmpd 54, 1-(3-(1-(7H-pyrrolo[2,3-d]pyrimidin-4-yl)piperidin-3-yl)phenyl)-3-cyclohexylurea] | 5.00 to 6.00
O=C(Nc1cccc(C2CCCN(c3ncnc4[nH]ccc34)C2)c1)Nc1ccccc1O (stereo not shown) [Cmpd 56, 1-(3-(1-(7H-pyrrolo[2,3-d]pyrimidin-4-yl)piperidin-3-yl)phenyl)-3-(2-hydroxyphenyl)urea] | 6.00 to 7.00
O=C(Nc1cccc(C2CCCN(c3ncnc4[nH]ccc34)C2)c1)Nc1cccc2[nH]ccc12 (stereo not shown) [Cmpd 45, 1-(3-(1-(7H-pyrrolo[2,3-d]pyrimidin-4-yl)piperidin-3-yl)phenyl)-3-(1H-indol-4-yl)urea] | 5.00 to 6.00
O=C(Nc1cccc(C2CCCN(c3ncnc4[nH]ccc34)C2)c1)Nc1ccccc1Cl (stereo not shown) [Cmpd 25, 1-(3-(1-(7H-pyrrolo[2,3-d]pyrimidin-4-yl)piperidin-3-yl)phenyl)-3-(2-chlorophenyl)urea] | 5.00 to 6.00
Cc1cc(NC(=O)Nc2cccc(C3CCCN(c4ncnc5[nH]ccc45)C3)c2)n(C(C)(C)C)n1 (stereo not shown) [Cmpd 36, 1-(3-(1-(7H-pyrrolo[2,3-d]pyrimidin-4-yl)piperidin-3-yl)phenyl)-3-(1-tert-butyl-3-methyl-1H-pyrazol-5-yl)urea] | 5.00 to 6.00
O=C(Nc1cccc(C2CCCN(c3ncnc4[nH]ccc34)C2)c1)N[C@@H]1CCc2ccccc21 (stereo partly drawn) [Cmpd 40, 1-(3-(1-(7H-pyrrolo[2,3-d]pyrimidin-4-yl)piperidin-3-yl)phenyl)-3-((R)-2,3-dihydro-1H-inden-1-yl)urea] | 6.00 to 7.00
O=C(Nc1cccc(C2CCCN(c3ncnc4[nH]ccc34)C2)c1)Nc1cccc2c1OC(F)(F)O2 (stereo not shown) [Cmpd 39, 1-(3-(1-(7H-pyrrolo[2,3-d]pyrimidin-4-yl)piperidin-3-yl)phenyl)-3-(2,2-difluorobenzo[d][1,3]dioxol-4-yl)urea] | 5.00 to 6.00
CC(=O)Nc1ccccc1NC(=O)Nc1cccc(C2CCCN(c3ncnc4[nH]ccc34)C2)c1 (stereo not shown) [Cmpd 55, N-(2-(3-(3-(1-(7H-pyrrolo[2,3-d]pyrimidin-4-yl)piperidin-3-yl)phenyl)ureido)phenyl)acetamide] | 5.00 to 6.00

Same assay, conditions: read-out: IC50 (10 uM ATP); 10 uM ATP; in vitro Btk kinase assay, Example 41

pIC50 | Structure (SMILES)
> 7.00 | O=C(Nc1cccc([C@H]2CCCN(c3ncnc4[nH]ccc34)C2)c1)Nc1c(Cl)cccc1Cl [compound 153]
> 7.00 | Nc1ncnc(N2CC[C@H](C(F)(F)F)[C@@H](N3CCC[C@@H](Nc4cc(F)cc(Cl)c4)C3=O)C2)c1F [compound 332, trans (3R)-1′-(6-Amino-5-fluoropyrimidin-4-yl)-3-(3-chloro-5-fluorophenylamino)-4′-(trifluoromethyl)-1,3′-bipiperidin-2-one]
< 5.00 | Nc1ncnc(N2CC[C@@H](C(F)(F)F)[C@H](N3CCC[C@H](Nc4cc(F)cc(Cl)c4)C3=O)C2)c1F [compound 331, trans (3S)-1′-(6-Amino-5-fluoropyrimidin-4-yl)-3-(3-chloro-5-fluorophenylamino)-4′-(trifluoromethyl)-1,3′-bipiperidin-2-one]
> 7.00 | O=C1[C@H](Nc2cc(Cl)cc(Cl)c2)CCN1[C@H]1CN(c2ncnc3[nH]ncc23)CC[C@@H]1C(F)(F)F [compound 355]
> 7.00 | Nc1ncnc(N2CC[C@H](C(F)(F)F)[C@@H](N3CCCC(Nc4cc(F)cc(Cl)c4)C3=O)C2)c1F (stereo partly drawn) [compound 329, trans 1′-(6-Amino-5-fluoropyrimidin-4-yl)-3-(3-chloro-5-fluorophenylamino)-4′-(trifluoromethyl)-1,3′-bipiperidin-2-one]

pIC50: −log10 of the molar value.
